The target of test [1] is T1, Fatty acid 2-hydroxylase (Homo sapiens) (UniProt Q7L5A8).
T1 sequence (whole entry): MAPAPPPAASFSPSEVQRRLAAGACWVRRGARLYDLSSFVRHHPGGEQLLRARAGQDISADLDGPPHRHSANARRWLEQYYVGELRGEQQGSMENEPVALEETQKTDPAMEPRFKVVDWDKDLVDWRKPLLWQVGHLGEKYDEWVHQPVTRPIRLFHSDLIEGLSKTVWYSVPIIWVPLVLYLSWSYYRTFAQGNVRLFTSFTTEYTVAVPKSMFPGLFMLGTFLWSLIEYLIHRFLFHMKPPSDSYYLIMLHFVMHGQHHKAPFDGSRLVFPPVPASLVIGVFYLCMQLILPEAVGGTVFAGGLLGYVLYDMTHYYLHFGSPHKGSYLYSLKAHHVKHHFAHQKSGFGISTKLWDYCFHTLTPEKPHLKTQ
As to the kind of experiment: Inhibition of recombinant human FAAH at 10 uM preincubated for 5 mins followed by substrate addition for 5 mins by fluorometer assay relative to control. To be noted: time 10.0 min.

Protein sequences, listed by entry. Tags and fused reporters are not part of them.
UniProt P21554, whole entry: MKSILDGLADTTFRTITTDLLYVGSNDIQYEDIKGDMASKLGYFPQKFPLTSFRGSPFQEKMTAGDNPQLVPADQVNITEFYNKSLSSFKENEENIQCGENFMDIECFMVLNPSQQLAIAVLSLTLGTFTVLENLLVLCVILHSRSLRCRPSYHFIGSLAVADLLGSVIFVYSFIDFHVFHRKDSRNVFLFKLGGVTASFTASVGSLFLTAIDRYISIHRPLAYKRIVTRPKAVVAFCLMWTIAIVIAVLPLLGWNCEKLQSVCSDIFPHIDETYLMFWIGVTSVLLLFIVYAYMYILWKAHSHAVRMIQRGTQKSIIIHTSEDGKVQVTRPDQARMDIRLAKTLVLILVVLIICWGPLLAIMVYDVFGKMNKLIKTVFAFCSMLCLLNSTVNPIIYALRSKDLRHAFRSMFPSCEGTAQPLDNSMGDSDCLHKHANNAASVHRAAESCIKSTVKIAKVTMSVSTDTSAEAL
UniProt P34972, whole entry: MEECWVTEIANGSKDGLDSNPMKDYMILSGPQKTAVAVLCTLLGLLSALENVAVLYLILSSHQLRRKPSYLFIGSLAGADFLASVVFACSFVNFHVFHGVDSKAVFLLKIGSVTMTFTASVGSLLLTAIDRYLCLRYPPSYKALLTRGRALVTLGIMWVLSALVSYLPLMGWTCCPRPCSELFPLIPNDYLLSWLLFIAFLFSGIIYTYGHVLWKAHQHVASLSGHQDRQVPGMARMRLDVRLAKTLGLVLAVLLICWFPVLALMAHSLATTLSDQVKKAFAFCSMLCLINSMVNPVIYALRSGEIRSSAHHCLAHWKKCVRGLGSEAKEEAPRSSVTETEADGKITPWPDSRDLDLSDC
UniProt Q99685, whole entry: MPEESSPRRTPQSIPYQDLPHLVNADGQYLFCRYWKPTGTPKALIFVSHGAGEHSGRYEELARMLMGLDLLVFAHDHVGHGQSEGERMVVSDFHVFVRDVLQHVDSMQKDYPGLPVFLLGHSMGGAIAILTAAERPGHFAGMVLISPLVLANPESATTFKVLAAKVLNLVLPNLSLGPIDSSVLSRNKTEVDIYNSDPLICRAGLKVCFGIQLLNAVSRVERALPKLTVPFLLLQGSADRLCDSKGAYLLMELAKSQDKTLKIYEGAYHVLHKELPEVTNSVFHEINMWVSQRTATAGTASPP

For test [2], the target named is Cannabinoid receptor 1 (Homo sapiens) (UniProt P21554). Kind of test: Agonist activity at CB1R (unknown origin) at 10 uM relative to control. It is filed as functional. The following applies: filed as agonist.
The target in test [3] is Cannabinoid receptor 2 (Homo sapiens) (UniProt P34972). As to the kind of experiment: Agonist activity at CB2R (unknown origin) at 10 uM relative to control. It is filed as functional.
The target of a further test is Monoglyceride lipase (Homo sapiens, UniProt Q99685). Kind of test: Inhibition of recombinant human MAGL at 4.4 uM preincubated for 10 mins followed by substrate addition and measured every 10 sec for 10 mins relative to control. The following applies: time 20.0 min.
Test [4] has as its target Cannabinoid receptor 1 (Homo sapiens) (UniProt P21554). As to the kind of experiment: Agonist activity at CB1R (unknown origin) at 1 uM relative to control. It is filed as functional.

SMILES strings stand for the structures.

`O=C(c1ccc2ccc(=O)[nH]c2c1)N1CCN(c2ccc(-c3ccc(Cl)cc3)cn2)CC1`: the inhibition in test [1] was 23.6%. Further, the Activity was 48.3% in test [2] and 6.3% in test [3].
Turning to `O=C(Oc1ccc([N+](=O)[O-])cc1)N1CCN(Cc2cccc(Oc3ccccc3)c2)CC1`, the inhibition at Monoglyceride lipase stood at 89%.
With `O=C(c1ccc2ccc(=O)[nH]c2c1)N1CCN(c2ccc(-c3ccc(Cl)cc3F)cn2)CC1`, the inhibition in test [1] amounted to 31.1%. The Activity came to 31.7% in test [4] and 14.8% in test [3].

Source of the values: ChEMBL document CHEMBL5543107, “Discovery of a novel class of reversible monoacylglycerol lipase inhibitors for potential treatment of depression” (Eur J Med Chem, 2024).
